Reference: patent US20220411487A1 (Regeneron, published 2022)

Protein sequences, listed by entry. Tags and fused reporters are not part of them. Chains listed by the source or under a name are the forms on record and can include a tag or linker.
UniProt Q8IU80, other isoform, or with tags, fused parts or gaps limits assumed: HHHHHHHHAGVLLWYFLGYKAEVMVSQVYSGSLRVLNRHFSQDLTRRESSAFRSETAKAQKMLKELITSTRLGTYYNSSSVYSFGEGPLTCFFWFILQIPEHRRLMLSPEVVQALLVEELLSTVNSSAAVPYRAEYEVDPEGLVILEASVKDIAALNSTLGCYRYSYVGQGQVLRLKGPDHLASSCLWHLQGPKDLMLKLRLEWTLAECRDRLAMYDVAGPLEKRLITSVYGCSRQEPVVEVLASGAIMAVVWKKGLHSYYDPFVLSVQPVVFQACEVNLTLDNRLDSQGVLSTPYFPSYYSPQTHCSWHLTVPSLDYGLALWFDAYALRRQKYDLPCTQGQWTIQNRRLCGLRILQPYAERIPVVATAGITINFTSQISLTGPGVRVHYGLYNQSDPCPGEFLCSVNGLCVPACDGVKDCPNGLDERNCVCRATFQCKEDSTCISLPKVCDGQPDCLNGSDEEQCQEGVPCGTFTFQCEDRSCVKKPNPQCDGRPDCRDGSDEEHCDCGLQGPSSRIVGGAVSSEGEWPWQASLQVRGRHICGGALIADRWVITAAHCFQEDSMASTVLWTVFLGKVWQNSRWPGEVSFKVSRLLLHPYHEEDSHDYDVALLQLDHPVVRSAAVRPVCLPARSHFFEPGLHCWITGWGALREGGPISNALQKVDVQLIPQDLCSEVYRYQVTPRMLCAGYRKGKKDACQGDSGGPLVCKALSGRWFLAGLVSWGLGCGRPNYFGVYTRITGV
UniProt Q8IU80, other isoform, or with tags, fused parts or gaps S762A S762A: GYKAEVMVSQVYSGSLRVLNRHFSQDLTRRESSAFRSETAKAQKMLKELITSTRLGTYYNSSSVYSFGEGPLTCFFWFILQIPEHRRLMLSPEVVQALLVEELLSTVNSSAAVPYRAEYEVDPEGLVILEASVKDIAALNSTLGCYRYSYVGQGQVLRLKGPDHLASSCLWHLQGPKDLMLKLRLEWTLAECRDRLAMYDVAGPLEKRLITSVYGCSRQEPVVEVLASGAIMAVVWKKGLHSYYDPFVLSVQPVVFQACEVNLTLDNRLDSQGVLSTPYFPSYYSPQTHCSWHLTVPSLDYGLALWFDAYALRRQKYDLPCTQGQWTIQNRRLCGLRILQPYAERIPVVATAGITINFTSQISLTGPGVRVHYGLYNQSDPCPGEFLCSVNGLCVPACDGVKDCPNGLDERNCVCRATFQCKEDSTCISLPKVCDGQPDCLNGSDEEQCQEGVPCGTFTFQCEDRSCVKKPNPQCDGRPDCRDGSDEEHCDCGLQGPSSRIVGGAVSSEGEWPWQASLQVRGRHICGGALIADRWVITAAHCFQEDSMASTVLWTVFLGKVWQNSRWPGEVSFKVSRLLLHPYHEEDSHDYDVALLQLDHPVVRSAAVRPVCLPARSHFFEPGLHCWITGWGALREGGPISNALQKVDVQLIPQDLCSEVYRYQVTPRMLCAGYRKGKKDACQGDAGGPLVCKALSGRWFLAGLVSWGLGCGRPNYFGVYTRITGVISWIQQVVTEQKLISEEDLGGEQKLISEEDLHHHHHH

Experiments:
[1] = molecular target: extracellular domain of Human TMPRSS6 with N-terminal 8xHistidine, CHO conditioned media (human, UniProt Q8IU80); assay: cell-based or functional assay
[2] = molecular target: T1, extracellular domain of cynomolgous monkey TMPRSS6 (V673M) with N-terminal 8xHistidine, CHO conditioned media (cynomolgous monkey, UniProt Q8IU80 77-811 (human entry)); assay: cell-based or functional assay
T1 chain: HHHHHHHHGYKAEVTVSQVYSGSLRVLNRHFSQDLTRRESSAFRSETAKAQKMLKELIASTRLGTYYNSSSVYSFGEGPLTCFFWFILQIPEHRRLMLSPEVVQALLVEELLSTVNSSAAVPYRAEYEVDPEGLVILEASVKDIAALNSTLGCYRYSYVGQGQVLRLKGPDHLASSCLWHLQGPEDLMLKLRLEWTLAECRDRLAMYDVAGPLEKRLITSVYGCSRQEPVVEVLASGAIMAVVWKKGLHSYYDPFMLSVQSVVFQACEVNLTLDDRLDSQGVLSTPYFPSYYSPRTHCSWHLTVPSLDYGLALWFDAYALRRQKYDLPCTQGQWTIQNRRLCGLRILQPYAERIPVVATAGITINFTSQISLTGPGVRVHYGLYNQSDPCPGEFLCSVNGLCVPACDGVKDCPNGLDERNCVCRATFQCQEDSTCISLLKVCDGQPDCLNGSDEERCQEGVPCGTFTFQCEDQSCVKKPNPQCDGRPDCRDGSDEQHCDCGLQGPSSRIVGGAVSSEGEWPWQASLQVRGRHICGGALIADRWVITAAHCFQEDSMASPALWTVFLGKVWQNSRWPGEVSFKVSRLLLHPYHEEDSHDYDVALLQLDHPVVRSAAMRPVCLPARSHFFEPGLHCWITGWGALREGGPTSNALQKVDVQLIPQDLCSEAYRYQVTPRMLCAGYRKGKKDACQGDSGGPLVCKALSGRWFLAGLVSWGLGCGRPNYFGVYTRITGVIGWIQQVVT

[3] = molecular target: T2, full length human TMPRSS6 on HEK293 cells (HEK293/hTMPRSS6) (human, UniProt Q8IU80 10-811); assay: cell-based or functional assay
T2 sequence (looked up): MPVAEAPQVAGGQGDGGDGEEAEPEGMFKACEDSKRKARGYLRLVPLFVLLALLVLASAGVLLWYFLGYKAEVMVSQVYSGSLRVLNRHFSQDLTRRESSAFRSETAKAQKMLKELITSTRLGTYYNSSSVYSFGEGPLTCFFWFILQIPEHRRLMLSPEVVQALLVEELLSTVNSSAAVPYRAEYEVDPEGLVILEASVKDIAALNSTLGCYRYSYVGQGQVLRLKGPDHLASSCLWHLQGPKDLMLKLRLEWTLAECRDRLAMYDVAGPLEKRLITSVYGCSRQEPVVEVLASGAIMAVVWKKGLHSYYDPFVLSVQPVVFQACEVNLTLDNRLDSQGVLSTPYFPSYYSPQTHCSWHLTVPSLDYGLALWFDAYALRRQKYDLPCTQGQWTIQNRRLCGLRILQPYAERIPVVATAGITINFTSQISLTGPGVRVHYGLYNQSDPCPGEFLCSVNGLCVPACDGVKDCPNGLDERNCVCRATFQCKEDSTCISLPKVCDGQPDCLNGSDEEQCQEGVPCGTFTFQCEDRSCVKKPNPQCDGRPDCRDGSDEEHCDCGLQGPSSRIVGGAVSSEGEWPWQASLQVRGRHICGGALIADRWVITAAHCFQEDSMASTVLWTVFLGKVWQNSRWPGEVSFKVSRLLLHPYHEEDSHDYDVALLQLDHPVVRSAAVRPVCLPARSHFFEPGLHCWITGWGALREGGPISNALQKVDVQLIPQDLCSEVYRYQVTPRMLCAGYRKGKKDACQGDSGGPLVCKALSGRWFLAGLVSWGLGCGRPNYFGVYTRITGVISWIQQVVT

[4] = molecular target: T3, hTMPRSS6_S762A-MMH (human, UniProt Q8IU80); assay: SPR, mAb captured via anti-hFc, 25 C
T3 construct: also called REGN5330; human TMPRSS6_S762A-MMH
Method: The equilibrium dissociation constant (KD) for TMPRSS6 binding to different TMPRSS6 monoclonal antibodies (mAbs) was determined using a real-time surface plasmon resonance biosensor using a Biacore 4000 instrument. All binding studies were performed in 10 mM HEPES, 150 mM NaCl, 3 mM EDTA, and 0.05% v/v Surfactant Tween-20, pH 7.4 (HBS-ET) running buffer at 25° C. and 37° C. The Biacore CM5 sensor chip surface was first derivatized by amine coupling with a human Fc specific mouse mAb to capture different TMPRSS6 mAbs. […] Different concentrations (100 nM to 3.7 nM, 3-fold serial dilution) of the TMPRSS6 reagent proteins prepared in HBS-EP running buffer were injected over the TMPRSS6 mAb captured surface for 150 seconds at a flow rate of 30 μL/min and their dissociation in HBS-ET running buffer was monitored for 10 minutes. At the end of each cycle, the TMPRSS6 mAb captured surface was regenerated using a 12 second injection of 20 mM phosphoric acid.
The association rate (kₐ) and dissociation rate (kd) were determined by fitting the real-time binding sensorgrams to a 1:1 binding model with mass transport limitation using Scrubber 2.0 (BioLogic Software) curve-fitting software. Binding dissociation equilibrium constant (KD) and dissociative half-life (t½) were calculated from the kinetic rates as: […]

B1: REGN7973 (antibody, human IgG4 S228P, kappa, V domains shown)
VH: EVQLVESGGGLVKPGGSLRLSCAASGFTFSNAWMSWVRQAPGKGLEWVGRIKSKTDSGTTDYAAPVKGRFTISRDDSKNTLYLQMNSLKTEDTAVYYCTTVDNDFWSGYYNWFDPWGQGTLVTVSS
VL: [gap - about 100 residues]
notes: fully human; human IgG4 Fc with hinge S108P; also called mAb37777
[1]
  % inhibition of enzymatic activity, CM bioassay: 93%
  IC50, CM bioassay: 26 nM
[2]
  % inhibition of enzymatic activity, CM bioassay: 81%
  IC50, CM bioassay: > 50 nM
[3]
  % inhibition, HEK293 bioassay, 30 min pre-incubation 25 C: 89%
  IC50, HEK293 bioassay, 30 min pre-incubation 25 C: 5.8 nM
[4]
  100 nM Ag Bound: 134 RU
  Kd: 0.626 nM
  koff: 0.000157 s⁻¹
  kon: 252000 M⁻¹ s⁻¹
  t½: 1.22 h
